Laboratory results published in patent US20260191848A1, “METHODS OF REVERSING PARP-RESISTANCE IN CANCER” (THE TRUSTEES OF COLUMBIA UNIVERSITY IN THE CITY OF NEW YORK, priority 2023, published 2026).

How the values were obtained:
[1] = system: Brca1-def breast cancer cell lines; test: In vitro cell viability assay (MTS), Brca1-def sensitive vs resistant lines; type: cell-based, mouse; details: 0 to 10,000 nM talazoparib, 7 days
[2] = system: Brca1-def Tal-sensitive tumors; test: In-vivo PARPi-response-and-recurrence model, Brca1-def orthotopic allograft (talazoparib-sensitive); details: talazoparib 0.3 mg/kg body weight/day, five days/week, oral gavage, from 14 days post tumor-cell injection, vs vehicle
[3] = system: Bard1-def Tal-sensitive tumors; test: In-vivo PARPi-response-and-recurrence model, Bard1-def orthotopic allograft (talazoparib-sensitive); details: talazoparib 0.3 mg/kg body weight/day, five days/week, oral gavage, from 7 days post tumor-cell injection, vs vehicle
[4] = system: Bard1-def breast cancer cell lines; test: In vitro cell viability assay (MTS), Bard1-def sensitive vs resistant lines; type: cell-based, mouse; details: 0 to 10,000 nM talazoparib, 7 days

Structure (SMILES): Cn1ncnc1[C@H]1c2n[nH]c(=O)c3cc(F)cc(c23)N[C@@H]1c1ccc(F)cc1 [talazoparib]
- difference in response to talazoparib between PARPi-sensitive and -resistant lines (cell viability) [1]: only a modest difference
- tumor growth [2]: inhibited tumor growth in mice for several weeks
- tumor growth [3]: inhibited tumor growth in mice for several weeks
- difference in response to talazoparib between PARPi-sensitive and -resistant lines (cell viability) [4]: only a modest difference
